Assay: Selectivity index, ratio of EC50 for agonist activity at human S1P3 receptor expressed in EDG3-Ga15-bla HEK293T cell membranes to EC50 for agonist activity at human S1P1 receptor expressed in CHO cell membranes
Assay type: cell-based
In short: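 S1P3/S1P1 ratio of GTPγ[35S] EC50s. Membranes from EDG3-Ga15-bla HEK293T (S1P3) or S1P1/CHO cells, […], 0.2 nM final [35S]GTP. HEPES pH 7.5 buffer with MgCl2, NaCl, EGTA, DTT, GDP, BSA and saponin. 45 min at room temperature, filtration read-out. Each EC50 taken at 50% of the compound's own Ymax.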

O=C(O)C1CN(Cc2ccc(-c3noc(-c4onc(-c5ccccc5)c4C(F)(F)F)n3)cc2)C1
Ratio EC50: 3400

Source: ChEMBL document CHEMBL3792331, “Identification and synthesis of potent and selective pyridyl-isoxazole based agonists of sphingosine-1-phosphate 1 (S1P1)” (Bioorg Med Chem Lett, 2016)
